Experimental data reported in patent publication US20140241987A1.

Tests used:
[1] = target: Syn-O4; assay: inhibition ELISA: soluble fibrils titrated, preincubated with 10 ng/ml Syn-O4, then plate coated with α-synuclein fibrils
[2] = target: Syn-O3; assay: inhibition ELISA: soluble fibrils titrated, preincubated with 10 ng/ml Syn-O3, then plate coated with α-synuclein fibrils
[3] = target: Syn-O2; assay: inhibition ELISA: soluble fibrils titrated, preincubated with 10 ng/ml Syn-O2, then plate coated with α-synuclein fibrils
[4] = target: Syn-O1; assay: inhibition ELISA: soluble fibrils titrated, preincubated with 10 ng/ml Syn-O1, then plate coated with α-synuclein fibrils
[5] = target: Syn-O1; assay: inhibition ELISA: monomers titrated, preincubated with 10 ng/ml Syn-O1, then plate coated with α-synuclein fibrils
[6] = target: Syn-O4; assay: inhibition ELISA: monomers titrated, preincubated with 10 ng/ml Syn-O4, then plate coated with α-synuclein fibrils
[7] = target: Syn-O2; assay: inhibition ELISA: monomers titrated, preincubated with 10 ng/ml Syn-O2, then plate coated with α-synuclein fibrils
[8] = target: Syn-O3; assay: inhibition ELISA: monomers titrated, preincubated with 10 ng/ml Syn-O3, then plate coated with α-synuclein fibrils
[9] = target: Syn-F2; assay: inhibition ELISA: monomers titrated, preincubated with 10 ng/ml Syn-F2, then plate coated with α-synuclein fibrils
[10] = target: Syn-F1; assay: inhibition ELISA: monomers titrated, preincubated with 10 ng/ml Syn-F1, then plate coated with α-synuclein fibrils

Substance | IC50 [1] [µM] | IC50 [2] [µM] | IC50 [3] [µM] | IC50 [4] [µM] | IC50 [5] [µM] | IC50 [6] [µM] | IC50 [7] [µM] | IC50 [8] [µM] | IC50 [9] [µM] | IC50 [10] [µM]
α-synuclein fibrils (from UniProt P37840 1-140) | 0.00052 | 0.00047 | 0.00012 | 0.00037 |  |  |  |  |  | 
α-synuclein monomers (from UniProt P37840 1-140) |  |  |  |  | 4.79 | 3.6 | 3.28 | 5.33 | 3.71 | 2.08
